Data taken from patent US20200087340A1, “LIF/LIFR ANTAGONIST IN ONCOLOGY AND NONMALIGNANT DISEASES” (Evestra, Inc., priority 2018, published 2020).

System: LIF-overexpressing MCF-7 (MCF-7 LIF) human breast cancer cells
Assay: LIF specificity assay, cytotoxicity
Assay type: cell-based
Conditions: cytotoxicity MCF-7 vs. MCF-7 LIF (specificity towards LIF)

C#CC(F)(F)[C@]1(O)CCC2C3CCC4=CC(=O)CCC4=C3C(c3ccc(C4CC4)cc3)C[C@@]21C (stereo partly drawn) [EC330, 17α-(1,1-difluoro-2-propyn-1-yl)-17β-hydroxy-11β-[4-p-(cyclopropyl)phenyl]estra-4,9-dien-3-one]
Fold Change: 3
